{"source": "patent EP4563146A1", "about": "(IRBM S.P.A., priority 2023, dated 2025)"}
{"target": "DEN2V NS2B-G4SG4-NS3 serine protease (Dengue virus type 2, UniProt Q91H74)", "assay": "DEN2V protease inhibition assay", "conditions": "not given", "units": {"IC50": "µM"}}
{"smiles": "O=C(Cc1ccc(=O)[nH]c1)Nc1cc(NC(=O)[N-]c2c[n+](Cc3ccccn3)no2)cc(C(F)(F)F)c1", "note": "[Example 123, ((3-(2-(6-Oxo-1,6-dihydropyridin-3-yl)acetamido)-5-(trifluoromethyl)phenyl)-carbamoyl)(3-(pyridin-2-ylmethyl)-1,2,3-oxadiazol-3-ium-5-yl)amide]", "IC50": "1 to 20"}
{"smiles": "Cc1cc(NC(=O)Cc2ccccc2)cc(NC(=O)[N-]c2c[n+](Cc3ccccn3)no2)c1", "note": "[Example 57, ((3-Methyl-5-(2-phenylacetamido)phenyl)carbamoyl)(3-(pyridin-2-ylmethyl)-1,2,3-oxadiazol-3-ium-5-yl)amide]", "IC50": "0.1 to 1"}
{"smiles": "O=C(Cc1ccccc1)Nc1cc(NC(=O)[N-]c2c[n+](CC3CCN(CCO)CC3)no2)cc(C(F)(F)F)c1", "note": "[Example 141, (3-((1-(2-Hydroxyethyl)piperidin-4-yl)methyl)-1,2,3-oxadiazol-3-ium-5-yl)((3-(2-phenylacetamido)-5-(trifluoromethyl)phenyl)-carbamoyl)amide]", "IC50": "< 0.1"}
{"smiles": "O=C([N-]c1c[n+](Cc2ccccn2)no1)Nc1cc(NC(=O)C23CC(C(=O)O)(C2)C3)cc(C(F)(F)F)c1", "note": "[Example 52, ((3-(3-Carboxybicyclo[1.1.1]pentane-1-carboxamido)-5-(trifluoromethyl)phenyl)-carbamoyl)(3-(pyridin-2-ylmethyl)-1,2,3-oxadiazol-3-ium-5-yl)amide]", "IC50": "1 to 20"}
{"smiles": "O=C(Cc1ccccc1)Nc1cc(NC(=O)[N-]c2c[n+](Cc3cccc(CN4C(=O)c5ccccc5C4=O)c3)no2)cc(C(F)(F)F)c1", "note": "[Example 107, (3-(3-((1,3-Dioxoisoindolin-2-yl)methyl)benzyl)-1,2,3-oxadiazol-3-ium-5-yl)((3-(2-phenylacetamido)-5-(trifluoromethyl)phenyl)carbamoyl)amide]", "IC50": "< 0.1"}
{"smiles": "COc1ncc(-c2ccc(C[n+]3cc([N-]C(=O)Nc4cc(NS(=O)(=O)CC5CCCCC5)cc(C(F)(F)F)c4)on3)cc2)c(C)n1", "note": "[Example 2, ((3-((Cyclohexylmethyl)sulfonamido)-5-(trifluoromethyl)phenyl)carbamoyl)(3-(4-(2-methoxy-4-methylpyrimidin-5-yl)benzyl)-1,2,3-oxadiazol-3-ium-5-yl)amide]", "IC50": "0.1 to 1"}
{"smiles": "COc1ccc(CC(=O)Nc2cc(NC(=O)[N-]c3c[n+](Cc4ccc(-c5cnc(OC)nc5C)cc4)no3)cc(C(F)(F)F)c2)cc1", "note": "[Example 16, (3-(4-(2-Methoxy-4-methylpyrimidin-5-yl)benzyl)-1,2,3-oxadiazol-3-ium-5-yl)((3-(2-(4-methoxyphenyl)acetamido)-5-(trifluoromethyl)phenyl)carbamoyl)amide]", "IC50": "0.1 to 1"}
{"smiles": "Cc1noc(C)c1-c1ccc([C@@H](CN)[n+]2cc([N-]C(=O)Nc3cc(NC(=O)Cc4ccccc4)cc(C(F)(F)F)c3)on2)cc1", "note": "[Example 24, (S)-(3-(2-Amino-1-(4-(3,5-dimethylisoxazol-4-yl)phenyl)ethyl)-1,2,3-oxadiazol-3-ium-5-yl)((3-(2-phenylacetamido)-5-(trifluoromethyl)phenyl)carbamoyl)amide]", "IC50": "< 0.1"}
{"smiles": "O=C(CC1CC2CC1C2)Nc1cc(NC(=O)[N-]c2c[n+](Cc3ccccn3)no2)cc(C(F)(F)F)c1", "note": "(centres unmarked) [Example 63, ((3-(2-(Bicyclo[2.1.1]hexan-2-yl)acetamido)-5-(trifluoromethyl)phenyl)carbamoyl)(3-(pyridin-2-ylmethyl)-1,2,3-oxadiazol-3-ium-5-yl)amide]", "IC50": "0.1 to 1"}
{"smiles": "CCOC(=O)CN1CCC(C[n+]2cc([N-]C(=O)Nc3cc(NC(=O)Cc4ccccc4)cc(C(F)(F)F)c3)on2)CC1", "note": "[Example 140, (3-((1-(2-Ethoxy-2-oxoethyl)piperidin-4-yl)methyl)-1,2,3-oxadiazol-3-ium-5-yl)((3-(2-phenylacetamido)-5-(trifluoromethyl)phenyl)-carbamoyl)amide]", "IC50": "< 0.1"}
{"smiles": "O=C([N-]c1c[n+](Cc2ccccn2)no1)Nc1cc(NC(=O)C2CCCc3cn[nH]c32)cc(C(F)(F)F)c1", "note": "(centres unmarked) [Example 38, (3-(Pyridin-2-ylmethyl)-1,2,3-oxadiazol-3-ium-5-yl)((3-(4,5,6,7-tetrahydro-1H-indazole-7-carboxamido)-5-(trifluoromethyl)phenyl)carbamoyl)amide]", "IC50": "0.1 to 1"}
{"smiles": "CC(c1ccc(C(=O)Nc2cc(NC(=O)[N-]c3c[n+](Cc4ccccn4)no3)cc(C(F)(F)F)c2)cc1)S(N)(=O)=O", "note": "(centres unmarked) [Example 78, (3-(Pyridin-2-ylmethyl)-1,2,3-oxadiazol-3-ium-5-yl)((3-(4-(1-sulfamoylethyl)-benzamido)-5-(trifluoromethyl)phenyl)carbamoyl)amide]", "IC50": "1 to 20"}
{"smiles": "O=C([N-]c1c[n+](C[C@H]2CC[C@@H](NCC(F)(F)F)CC2)no1)Nc1cc(N2CCC(c3ccccc3)C2=O)cc(C(F)(F)F)c1", "note": "(some centres unmarked) [Example 136, ((3-(2-Oxo-3-phenylpyrrolidin-1-yl)-5-(trifluoromethyl)phenyl)carbamoyl)(3-(((1s,4s)-4-((2,2,2-trifluoroethyl)amino)cyclohexyl)methyl)-1,2,3-oxadiazol-3-ium-5-yl)amide]", "IC50": "< 0.1"}
{"smiles": "O=C([N-]c1c[n+](Cc2ccccn2)no1)Nc1cc(NC(=O)c2ccn3c2COCC3)cc(C(F)(F)F)c1", "note": "[Example 81, ((3-(3,4-Dihydro-1H-pyrrolo[2,1-c][1,4]oxazine-8-carboxamido)-5-(trifluoromethyl)-phenyl)carbamoyl)(3-(pyridin-2-ylmethyl)-1,2,3-oxadiazol-3-ium-5-yl)amide]", "IC50": "1 to 20"}
{"smiles": "O=C([N-]c1c[n+](Cc2ccccn2)no1)Nc1cc(NC(=O)c2ccc3[nH]cnc3c2)cc(C(F)(F)F)c1", "note": "[Example 29, ((3-(1H Benzo[d]imidazole-5-carboxamido)-5-(trifluoromethyl)phenyl)-carbamoyl)(3-(pyridin-2-ylmethyl)-1,2,3-oxadiazol-3-ium-5-yl)amide]", "IC50": "1 to 20"}
{"smiles": "C=CCOC(=O)C[n+]1cc([N-]C(=O)Nc2cc(NC(=O)Cc3ccccc3)cc(C(F)(F)F)c2)on1", "note": "[Example 97, (3-(2-(Allyloxy)-2-oxoethyl)-1,2,3-oxadiazol-3-ium-5-yl)((3-(2-phenylacetamido)-5-(trifluoromethyl)phenyl)carbamoyl)amide]", "IC50": "< 0.1"}
{"smiles": "O=C(Cc1ccccc1)Nc1cc(NC(=O)[N-]c2c[n+](Cc3ccc(Br)cn3)no2)cc(C(F)(F)F)c1", "note": "[Example 12, (3-((5-Bromopyridin-2-yl)methyl)-1,2,3-oxadiazol-3-ium-5-yl)((3-(2-phenylacetamido)-5-(trifluoromethyl)phenyl)carbamoyl)amide]", "IC50": "< 0.1"}
{"smiles": "CN(CC(F)(F)F)[C@H]1CC[C@H](C[n+]2cc([N-]C(=O)Nc3cc(N4CC[C@H](c5ccccc5)C4=O)cc(C(F)(F)F)c3)on2)CC1", "note": "[Example 146, (3-(((1R,4R)-4-(Methyl(2,2,2-trifluoroethyl)-amino)cyclohexyl)methyl)-1,2,3-oxadiazol-3-ium-5-yl)((3-((R)-2-oxo-3-phenylpyrrolidin-1-yl)-5-(trifluoromethyl)phenyl)carbamoyl)amide]", "IC50": "< 0.1"}
{"target": "DEN2V NS2B-G4SG4-NS3 serine protease (Dengue virus type 2, UniProt Q91H74)", "assay": "DEN2V protease inhibition assay", "conditions": "read-out: Dengue 2 - NS3 protease", "units": {"IC50": "µM"}}
{"smiles": "CC(C)n1ccc(C(=O)Nc2cc(NC(=O)[N-]c3c[n+](Cc4ccccn4)no3)cc(C(F)(F)F)c2)n1", "note": "[Example 48]", "IC50": "1 to 20"}
{"smiles": "CN1CC(C(=O)Nc2cc(NC(=O)[N-]c3c[n+](Cc4ccccn4)no3)cc(C(F)(F)F)c2)C1", "note": "[Example 49]", "IC50": "1 to 20"}
{"smiles": "O=C(Cn1c(C(F)F)nc2ccccc21)Nc1cc(NC(=O)[N-]c2c[n+](Cc3ccccn3)no2)cc(C(F)(F)F)c1", "note": "[Example 65]", "IC50": "1 to 20"}
{"smiles": "O=C(CC1CCC1)Nc1cc(NC(=O)[N-]c2c[n+](Cc3ccccn3)no2)cc(C(F)(F)F)c1", "note": "[Example 54]", "IC50": "0.1 to 1"}
{"smiles": "O=C([N-]c1c[n+](Cc2ccccn2)no1)Nc1cc(NC(=O)C2CN(C3CC3)C2)cc(C(F)(F)F)c1", "note": "[Example 77]", "IC50": "1 to 20"}
{"smiles": "O=C([N-]c1c[n+](Cc2ccccn2)no1)Nc1cc(NC(=O)c2cnccn2)cc(C(F)(F)F)c1", "note": "[Example 45]", "IC50": "1 to 20"}
{"smiles": "O=C(CS(=O)(=O)c1ccccc1)Nc1cc(NC(=O)[N-]c2c[n+](Cc3ccccn3)no2)cc(C(F)(F)F)c1", "note": "[Example 43]", "IC50": "0.1 to 1"}
{"smiles": "O=C([N-]c1c[n+](Cc2ccccn2)no1)Nc1cc(NC(=O)c2cccc(Oc3ccccc3)c2)cc(C(F)(F)F)c1", "note": "[Example 31]", "IC50": "1 to 20"}
{"smiles": "O=C([N-]c1c[n+](Cc2ccccn2)no1)Nc1cc(NC(=O)C2CC2c2ccccc2)cc(C(F)(F)F)c1", "note": "(centres unmarked) [Example 50]", "IC50": "0.1 to 1"}
{"smiles": "Cn1cnnc1COCC(=O)Nc1cc(NC(=O)[N-]c2c[n+](Cc3ccccn3)no2)cc(C(F)(F)F)c1", "note": "[Example 72]", "IC50": "1 to 20"}
{"smiles": "O=C([N-]c1c[n+](Cc2ccccn2)no1)Nc1cc(NC(=O)C2Cc3ccccc32)cc(C(F)(F)F)c1", "note": "(centres unmarked) [Example 47]", "IC50": "0.1 to 1"}
{"smiles": "O=C([N-]c1c[n+](Cc2ccccn2)no1)Nc1cc(NC(=O)c2ccc(CN3CCOCC3)o2)cc(C(F)(F)F)c1", "note": "[Example 30]", "IC50": "1 to 20"}
{"smiles": "Nc1ccc(CC(=O)Nc2cc(NC(=O)[N-]c3c[n+](Cc4ccccn4)no3)cc(C(F)(F)F)c2)cn1", "note": "[Example 42]", "IC50": "0.1 to 1"}
{"smiles": "COc1ncc(-c2ccc(C[n+]3cc([N-]C(=O)Nc4cc(NC(=O)Cc5noc6ccccc56)cc(C(F)(F)F)c4)on3)cc2)c(C)n1", "note": "[Example 20]", "IC50": "< 0.1"}
{"smiles": "O=C([N-]c1c[n+](Cc2ccccn2)no1)Nc1cc(NC(=O)C2CCCC3(CCOC3)O2)cc(C(F)(F)F)c1", "note": "(centres unmarked) [Example 84]", "IC50": "1 to 20"}
{"smiles": "O=C(CCOC1CCCC1)Nc1cc(NC(=O)[N-]c2c[n+](Cc3ccccn3)no2)cc(C(F)(F)F)c1", "note": "[Example 73]", "IC50": "< 0.1"}
{"smiles": "CN1Cc2cc(C(=O)Nc3cc(NC(=O)[N-]c4c[n+](Cc5ccccn5)no4)cc(C(F)(F)F)c3)sc2C1", "note": "[Example 39]", "IC50": "1 to 20"}
{"smiles": "N#Cc1ccn(C2(C(=O)Nc3cc(NC(=O)[N-]c4c[n+](Cc5ccccn5)no4)cc(C(F)(F)F)c3)CC2)n1", "note": "[Example 71]", "IC50": "1 to 20"}
{"smiles": "O=C([N-]c1c[n+](Cc2ccccn2)no1)Nc1cc(NC(=O)c2ccc3c(n2)CCO3)cc(C(F)(F)F)c1", "note": "[Example 79]", "IC50": "1 to 20"}
{"smiles": "O=C([N-]c1c[n+](Cc2ccccn2)no1)Nc1cc(NC(=O)c2cnn(Cc3ccccc3)c2)cc(C(F)(F)F)c1", "note": "[Example 35]", "IC50": "1 to 20"}
